Experimental data reported in PubChem BioAssay (Tox21).
Where “and” joins values, the source holds several entries; their conditions need not be identical. Identical values can stand only once. The list shows a part of the results, in another mix than the full data. Inconclusive results are not listed. Calls of active or inactive are those of the source. Unless noted, calls come from the whole dose curve.

The chains behind the UniProt entries cited, without tags or fusion partners.
UniProt P30968, whole entry: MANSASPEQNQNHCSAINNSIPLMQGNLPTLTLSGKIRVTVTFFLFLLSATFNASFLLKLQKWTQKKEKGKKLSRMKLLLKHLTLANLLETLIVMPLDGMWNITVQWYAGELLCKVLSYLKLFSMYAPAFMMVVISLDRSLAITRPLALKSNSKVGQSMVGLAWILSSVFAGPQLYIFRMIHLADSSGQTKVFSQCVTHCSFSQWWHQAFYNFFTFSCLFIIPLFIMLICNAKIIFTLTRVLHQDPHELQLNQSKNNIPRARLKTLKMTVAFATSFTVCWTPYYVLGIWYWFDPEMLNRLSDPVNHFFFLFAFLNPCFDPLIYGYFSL
UniProt Q969F8, whole entry: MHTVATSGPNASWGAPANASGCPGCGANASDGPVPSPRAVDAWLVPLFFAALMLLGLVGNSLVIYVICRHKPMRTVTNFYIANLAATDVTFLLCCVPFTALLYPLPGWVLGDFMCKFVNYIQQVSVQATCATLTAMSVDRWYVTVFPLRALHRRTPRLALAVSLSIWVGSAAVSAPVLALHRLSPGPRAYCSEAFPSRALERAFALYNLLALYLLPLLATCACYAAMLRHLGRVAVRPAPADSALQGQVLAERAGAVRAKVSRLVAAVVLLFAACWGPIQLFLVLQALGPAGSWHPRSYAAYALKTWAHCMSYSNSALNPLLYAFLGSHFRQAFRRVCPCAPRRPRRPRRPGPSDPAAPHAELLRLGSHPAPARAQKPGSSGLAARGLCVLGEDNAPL
UniProt P28223, whole entry: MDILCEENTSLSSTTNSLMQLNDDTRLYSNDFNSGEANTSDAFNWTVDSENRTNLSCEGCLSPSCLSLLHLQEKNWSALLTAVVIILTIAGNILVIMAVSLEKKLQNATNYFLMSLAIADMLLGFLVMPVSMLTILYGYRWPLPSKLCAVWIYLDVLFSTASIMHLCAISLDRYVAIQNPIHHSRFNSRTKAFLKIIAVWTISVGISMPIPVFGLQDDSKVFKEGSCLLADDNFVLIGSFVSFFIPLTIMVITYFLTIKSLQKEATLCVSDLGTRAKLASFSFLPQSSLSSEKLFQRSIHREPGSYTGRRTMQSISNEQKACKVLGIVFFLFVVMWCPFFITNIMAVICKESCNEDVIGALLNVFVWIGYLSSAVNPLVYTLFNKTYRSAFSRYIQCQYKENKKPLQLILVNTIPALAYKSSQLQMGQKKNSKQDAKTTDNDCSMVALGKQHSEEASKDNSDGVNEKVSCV
UniProt P11229, whole entry: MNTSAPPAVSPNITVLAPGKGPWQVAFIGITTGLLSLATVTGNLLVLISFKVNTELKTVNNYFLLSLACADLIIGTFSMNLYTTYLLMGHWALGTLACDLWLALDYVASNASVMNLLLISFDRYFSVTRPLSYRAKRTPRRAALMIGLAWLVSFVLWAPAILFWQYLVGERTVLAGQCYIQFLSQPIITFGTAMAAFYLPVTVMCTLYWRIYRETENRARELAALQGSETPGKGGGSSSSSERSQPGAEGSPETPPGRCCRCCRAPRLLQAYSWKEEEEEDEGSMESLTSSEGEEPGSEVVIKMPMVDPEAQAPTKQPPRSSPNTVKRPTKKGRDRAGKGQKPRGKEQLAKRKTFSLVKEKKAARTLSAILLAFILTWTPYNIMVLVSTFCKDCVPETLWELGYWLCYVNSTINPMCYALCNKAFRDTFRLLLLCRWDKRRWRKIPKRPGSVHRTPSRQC
UniProt P07550, whole entry: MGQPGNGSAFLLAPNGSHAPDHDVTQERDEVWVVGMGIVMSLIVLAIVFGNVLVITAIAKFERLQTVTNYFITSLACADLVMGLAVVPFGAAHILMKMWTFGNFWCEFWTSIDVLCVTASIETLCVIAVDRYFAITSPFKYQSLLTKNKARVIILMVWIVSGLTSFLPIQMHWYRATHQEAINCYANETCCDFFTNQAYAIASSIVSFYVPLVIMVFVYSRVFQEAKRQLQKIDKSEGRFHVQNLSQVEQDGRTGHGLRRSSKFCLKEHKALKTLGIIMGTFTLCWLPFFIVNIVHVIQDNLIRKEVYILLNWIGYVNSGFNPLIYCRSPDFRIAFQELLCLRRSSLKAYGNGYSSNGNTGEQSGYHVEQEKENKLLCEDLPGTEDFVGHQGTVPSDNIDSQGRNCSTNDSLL
UniProt P14416, whole entry: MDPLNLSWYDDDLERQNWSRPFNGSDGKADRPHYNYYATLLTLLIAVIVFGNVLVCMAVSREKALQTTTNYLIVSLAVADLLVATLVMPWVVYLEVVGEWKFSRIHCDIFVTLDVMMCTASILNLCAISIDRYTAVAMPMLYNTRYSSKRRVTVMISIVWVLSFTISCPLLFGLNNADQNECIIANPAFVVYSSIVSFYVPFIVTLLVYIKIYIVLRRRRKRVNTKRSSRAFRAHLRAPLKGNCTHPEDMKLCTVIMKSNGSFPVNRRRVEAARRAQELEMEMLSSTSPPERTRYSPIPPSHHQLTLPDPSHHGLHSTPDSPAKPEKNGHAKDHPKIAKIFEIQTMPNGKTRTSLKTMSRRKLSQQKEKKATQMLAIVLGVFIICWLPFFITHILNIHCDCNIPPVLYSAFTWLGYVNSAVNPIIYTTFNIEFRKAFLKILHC

Tests used:
[1] = Nuclear factor erythroid 2-related factor 2/antioxidant responsive element (Nrf2/ARE) small molecule agonists: qHTS cell viability counter screen in human keratinocytes (AID 1919968; active = well fitted curve in the direction sought with a large enough effect in the repeat runs; an effect the other way counts as inactive or inconclusive; note: nearly all actives have a fitted effect of over 55% in size); conditions: KeratinoSens HaCaT ARE cells viability, CellTiter-Fluor, 24 h; at 92.4 µM (top of the series) unless noted
Method in brief: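 In human HaCaT keratinocytes stably expressing an ARE-driven luciferase, compound exposure lasted 23 h at 37 C under 5% CO2. Viable cells are quantified with a protease-based fluorogenic reagent (CellTiter-Fluor) read 1 h after addition.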

[2] = Nuclear factor erythroid 2-related factor 2/antioxidant responsive element (Nrf2/ARE) small molecule agonists: luciferase reporter gene qHTS assay in human keratinocytes (AID 1919969); conditions: KeratinoSens HaCaT ARE-luciferase, luminescence, 24 h; at 92.4 µM (top of the series) unless noted; note: nearly all actives have a fitted effect of over 35% in size
Text: National Center for Advancing Translational Sciences [NCATS]
Division of Preclinical Innovation [DPI]
U.S. Environmental Protection Agency [EPA]
National Institutes of Environmental Health Sciences [NIEHS]
National Toxicology Program [NTP]
U.S. Food and Drug Administration [FDA]
Oxidative stress has been implicated in the pathogenesis of a variety of diseases ranging from cancer to neurodegeneration. The antioxidant response element (ARE) signaling pathway plays an important role in the amelioration of oxidative stress. The KeratinoSens (Givaudan, Switzerland) is an in vitro test method which quantifies luciferase induction as a measure of activation of Keap1-Nrf2-antioxidationt/electrophile response element (ARE) dependant pathway in HaCaT human keratinocytes stably transfected with a selectable plasmid. The KeratinoSens assay is a cell-based assay with a reporter cell line to detect potential skin sensitizers by their ability to induce the Nrf2/ARE-response. The activation of the report gene under culture conditions can be detected by ONE-Glo Luciferase Assay System (Promega, Madison, WI). This cell line has been used to screen the Tox21 10K compound library to identify agonists that induce oxidative stress. The cytotoxicity of the Tox21 compound library against the KS-ARE cell line was tested in parallel by measuring the cell viability using CellTiter- Fluor assay system (Promega, Madison, WI) in the same wells.
HaCaT derived cell line KeratinoSens were dispensed at 1,500 cells/5uL/well in 1536-well white wall/solid bottom plates using a Multidrop Combi (ThermoFisher Scientific, Waltham, MA) dispenser. After the assay plates were incubated at 37 C/5% CO2 for 5 h, 23 nL of compounds dissolved in DMSO, positive controls or DMSO only was transferred to the assay plate by a pintool workstation (Kalypsys, San Diego, CA). The plates were incubated at 37 C/5% CO2 for 23 h, followed by addition of 1uL/well of CellTiter-Fluor reagent into the assay plates using a Flying Reagent Dispenser (Aurora Discovery, San Diego, CA) for cell viability readout that measures cytotoxicity. After 1 h incubation at 37 C/5% CO2 the fluorescence intensity was measured using a ViewLux (PerkinElmer, Shelton, CT) plate reader. Then 4uL/well of One-Glo were added using a Flying Reagent Dispenser. After the plates were incubated at room temperature for 30 min, the luminescence intensity in the assay plates was measured using ViewLux plate reader.

[3] = molecular target: Gonadotropin-releasing hormone receptor (Homo sapiens) (UniProt P30968); experiment: Human gonadotropin-releasing hormone receptor (GnRHR) small molecule agonists, calcium flux assay in GnRHR-HEK293 cells (AID 1920063); conditions: calcium flux fluorescence, agonist mode, stronger effect = higher value; at 57.6 µM (top of the series) unless noted; note: nearly all actives have a fitted effect of over 35% in size
Method in brief: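 Intracellular calcium rise is the read-out: engineered human GnRHR HEK293 cells, dye-loaded, are exposed to DMSO-dissolved compounds and fluorescence at Ex/Em 480/540 is tracked for 3 min.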

[4] = molecular target: KiSS-1 receptor (Homo sapiens) (UniProt Q969F8); experiment: Human kisspeptin (KISS1R) small molecule agonists, calcium flux assay in KISS1R-HEK293 cells (AID 1920064; active = well fitted curve in the direction sought with a large enough effect in the repeat runs; an effect the other way counts as inactive or inconclusive); conditions: KISS1R-HEK293, calcium flux fluorescence, agonist; at 76.8 µM (top of the series) unless noted
Method in brief: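 Concentration-response testing used 15 concentrations in triplicate on human KISS1R-expressing HEK293 cells. Calcium-dependent fluorescence (Ex/Em 480/540) was followed kinetically for 3 min after compound transfer.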

[5] = G protein-coupled receptor (GPCR) small molecule agonists, calcium flux assay: HEK293 wild type cell line counter screen (AID 1920065); conditions: HEK293 WT calcium flux, fluorescence, agonist mode; at 57.6 µM (top of the series) unless noted
Method in brief: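 Fluorescence intensity signals activation. After overnight (18 h) culture and a 1 h calcium dye load at 37 C, compounds are added by pin tool and the plate read at 480/540 nm for 3 min in 1 s steps.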

[6] = p53 small molecule agonists, cell-based qHTS assay with human liver microsomes (AID 1963577); conditions: HCT-116 p53RE-bla with human liver microsomes, ratio, 16 h; at 66 µM (top of the series) unless noted
Method in brief: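 p53RE-bla reporter cells were pre-incubated 5 h at 37 C, then treated with compounds plus human liver microsomes (0.5 mg/mL final) and NADPH (0.5 mg/mL final) for 16 h at 37 C. Beta-lactamase activity was read by LiveBLAzer fluorescence after 2 h at room temperature.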

[7] = p53 small molecule agonists, cell-based qHTS assay with rat liver microsomes (AID 1963578); conditions: HCT-116 p53RE-bla, beta-lactamase ratio, 16 h; at 66 µM (top of the series) unless noted
Method in brief: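 p53RE-bla cells were exposed to compounds together with rat liver microsomes (0.5 mg/mL final) and NADPH (0.5 mg/mL final) for 16 h at 37 C, then read by LiveBLAzer beta-lactamase fluorescence after 2 h at room temperature.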

[8] = p53 small molecule agonists, cell-based qHTS assay with human liver microsomes: qHTS cell viability counter screen (AID 1963579); conditions: p53RE-bla HCT-116 viability, ATP luminescence, 16 h, HLM; at 66 µM (top of the series) unless noted; note: nearly all actives have a fitted effect of over 45% in size
Method in brief: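 p53RE-bla cells (4,000/well) were pre-incubated 5 h at 37 C, then given compounds in DMSO plus human liver microsomes (0.5 mg/mL final) and NADPH (0.5 mg/mL final) for 16 h at 37 C. Viability was read by CellTiter-Glo luminescence.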

[9] = p53 small molecule agonists, cell-based qHTS assay with rat liver microsomes: qHTS cell viability counter screen (AID 1963580); conditions: p53RE-bla HCT-116 + rat microsomes, ATP viability, 16 h; at 66 µM (top of the series) unless noted; note: nearly all actives have a fitted effect of over 45% in size
Method in brief: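 Counter screen for cytotoxicity under metabolic activation: rat liver microsomes and NADPH, 0.5 mg/mL final each, added with compounds to p53RE-bla HCT-116 cells; 16 h at 37 C, then ATP luminescence read.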

[10] = p53 small molecule agonists, cell-based qHTS assay: qHTS cell viability counter screen (AID 1963581); conditions: p53RE-bla HCT-116 viability, ATP luminescence, 16 h; at 66 µM (top of the series) unless noted; note: nearly all actives have a fitted effect of over 45% in size
Method in brief: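 Luminescence from CellTiter-Glo, reflecting ATP content, serves as the cytotoxicity measure; it is taken after the 2 h reporter substrate step in HCT-116 p53RE-bla cells dosed for 16 h at 37 C.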

[11] = p53 small molecule agonists, cell-based qHTS assay (AID 1963582; active = well fitted activation curve with a large enough effect in the signal ratio in the repeat runs, not every such curve was filed as active; the % refers to the signal ratio); conditions: HCT-116 p53RE-bla reporter, beta-lactamase FRET ratio, 16 h; at 66 µM (top of the series) unless noted
Method in brief: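 After plating, p53RE-bla cells sat 5 h in the incubator; compounds or DMSO vehicle were pinned in; a 16 h incubation at 37 C followed; FRET substrate was added and, 2 h later at RT, fluorescence was measured.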

[12] = molecular target: 5-hydroxytryptamine receptor 2A (Homo sapiens) (UniProt P28223); experiment: 5-hydroxytryptamine receptor 2A (HTR2A) small molecule antagonists, cell-based qHTS assay (AID 1963586); conditions: HTR2A-CHO cells, DOI-induced calcium flux, fluorescence; at 61.5 µM (top of the series) unless noted; note: nearly all actives have a fitted effect of over 45% in size
Method in brief: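 CHO cells stably expressing human HTR2A were plated for 18 h at 37 C, then loaded with calcium dye for 1 h. Compounds were preincubated 5 min at room temperature before DOI (4 nM solution) was added. Kinetic fluorescence was read for 3 min.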

[13] = molecular target: 5-hydroxytryptamine receptor 2A (Homo sapiens) (UniProt P28223); experiment: 5-hydroxytryptamine receptor 2A (HTR2A) small molecule agonists, cell-based qHTS assay (AID 1963587); conditions: HTR2A-CHO cells, calcium flux fluorescence, agonist mode; at 76.8 µM (top of the series) unless noted; note: nearly all actives have a fitted effect of over 30% in size
Method in brief: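 HTR2A-CHO cells, plated 18 h at 37 C/5% CO2, dye-loaded 1 h at 37 C; compounds in DMSO added by pin tool (agonist mode). Intracellular calcium flux read as kinetic fluorescence on FDSS over 2 min at 1 s intervals.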

[14] = molecular target: Muscarinic acetylcholine receptor M1 (Homo sapiens) (UniProt P11229); experiment: Cholinergic receptor muscarinic 1 (CHRM1) small molecule antagonists, cell-based qHTS assay (AID 1963588); conditions: CHRM1-CHO antagonist mode, calcium flux fluorescence; at 61.5 µM (top of the series) unless noted; note: nearly all actives have a fitted effect of over 40% in size
Method in brief: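 Compounds were tested at 15 concentrations in three independent runs. Dye-loaded CHRM1-CHO cells were exposed 5 min at room temperature before stimulation by acetylcholine added at 50nM. Intracellular calcium was read kinetically on FDSS for 3 min.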

[15] = molecular target: Muscarinic acetylcholine receptor M1 (Homo sapiens) (UniProt P11229); experiment: Cholinergic receptor muscarinic 1 (CHRM1) small molecule agonists, cell-based qHTS assay (AID 1963589); conditions: CHRM1-CHO cells, agonist mode, calcium flux fluorescence; at 76.8 µM (top of the series) unless noted; note: nearly all actives have a fitted effect of over 35% in size
Method in brief: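 Fluorescent calcium dye reports M1 activation in stably transfected CHO cells. Compounds, 15 concentrations, added after 1 h dye loading at 37 C; kinetic reading at 1 sec intervals.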

[16] = cAMP Responsive Elements (CRE) small molecule agonists, cell-based qHTS assay (AID 1963590); conditions: CRE-bla HEK293T, beta-lactamase FRET ratio, 3 h; at 92.4 µM (top of the series) unless noted
Method in brief: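 Compound exposure lasted 3 h at 37 C/5% CO2 in CRE-bla HEK 293T cells grown in assay medium with 10% dialyzed FBS and 25 mM HEPES. Reporter signal came from LiveBLAzer B/G FRET substrate, 2 h, room temperature.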

[17] = cAMP Responsive Elements (CRE) small molecule antagonists, cell-based qHTS assay (AID 1963591; active = well fitted inhibition curve with a large enough effect in the signal ratio in the repeat runs, not every such curve was filed as active; the % refers to the signal ratio); conditions: CRE-bla HEK293T, beta-lactamase FRET ratio; at 92.4 µM (top of the series) unless noted
Method in brief: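 Stimulation used NKH477 at a final 0.25 uM for 3 h in compound-treated CRE-bla HEK293T cells, seeded 18 h beforehand. Reporter activity was measured with LiveBLAzer B/G FRET substrate after 2 h at room temperature.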

[18] = molecular target: Beta-2 adrenergic receptor (Homo sapiens) (UniProt P07550); experiment: Adrenergic beta2 receptor (ADRB2) small molecule antagonists, cell-based qHTS assay (AID 1963592); conditions: CHO-ADRB2 cells, isoproterenol-stimulated cAMP HTRF ratio, 0.5 h; at 92.4 µM (top of the series) unless noted; note: nearly all actives have a fitted effect of over 50% in size
Method in brief: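 Assay format: CHO-ADRB2 cells, 18-20hr seeding at 37C/5% CO2, then compound plus 1nM isoproterenol agonist mix for 0.5hr RT. Homogeneous time-resolved fluorescence cAMP detection after 1hr, expressed as 665/615 nm ratio.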

[19] = molecular target: Beta-2 adrenergic receptor (Homo sapiens) (UniProt P07550); experiment: Adrenergic beta2 receptor (ADRB2) small molecule agonists, cell-based qHTS assay (AID 1963593); conditions: CHO-ADRB2 cells, cAMP HTRF, 30 min; at 92.4 µM (top of the series) unless noted;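 note: CHO cells stably overexpressing human ADRB2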
Method in brief: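 CHO cells stably over-expressing ADRB2 were plated overnight at 37C, then dosed with compounds plus a stimulation mix containing 100uM IBMX and 25uM Ro-20-1724 for 0.5hr at room temperature. cAMP was measured by HTRF competition, 1hr.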

[20] = molecular target: D(2) dopamine receptor (Homo sapiens) (UniProt P14416); experiment: Dopamine D2 receptor (DRD2) small molecule agonists, cell-based qHTS assay (AID 1963594); conditions: HEK293-DRD2 cAMP HTRF, agonist mode, 30 min; at 92.4 µM (top of the series) unless noted; note: nearly all actives have a fitted effect of over 35% in size
Method in brief: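 HEK293 cells stably expressing DRD2 were cultured 24 h at 37 C, then given Ro20-1724 (0.1 mM final) and compounds for 10 min at room temperature. NKH477 (200nM) was then added for 30 min. cAMP was read by HTRF.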

[21] = molecular target: D(2) dopamine receptor (Homo sapiens) (UniProt P14416); experiment: Dopamine D2 receptor (DRD2) small molecule antagonists, cell-based qHTS assay (AID 1963595; active = well fitted inhibition curve with a large enough effect in the signal ratio in the repeat runs, with a control signal flat; the % refers to the signal ratio); conditions: HEK293-DRD2 cAMP HTRF antagonist mode; at 92.4 µM (top of the series) unless noted
Method in brief: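 HTRF cAMP read-out at 665 and 620 nm emission (340 nm excitation). Antagonist mode: compounds were tested against 12 nM quinpirole in DRD2-HEK293 cells, with 200 nM NKH477 raising cAMP and 0.1 mM Ro20-1724 blocking its breakdown.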
% is set by controls: 0 for no effect and ±100 for the full control effect.

ClCCOP(OCCCl)OCCCl
inactive: activity change, negative = cytotoxicity [1] 0.125% and -1.13% | activity, positive = activation [2] 6.08% and 2.42% | activity change [3] 0.364% and -0.0565% | activation [4] 1.92% and -1.44% | activation [5] -0.0032% and -0.0985% | activation [6] 2.23% and 0.182% | activation [7] 0.221% and -0.726% | activity change, negative = cytotoxicity [8] -2.41% and 5.47% | activity change, negative = cytotoxicity [9] -11.2% and 3.65% | activity change, negative = cytotoxicity [10] -0.412% and -15.1% | activation [11] 0.296% and -1.65% | activity, negative = inhibition [12] 1.73% and 1.28% | activation [13] -0.629% and 0.874% | activity, negative = inhibition [14] -3.73% and -2.62% | activation [15] -0.126% and 0.547% | activation [16] -0.77% and 0.311% | activity change, negative = inhibition [17] 0.648% and 1.06% | activity change, negative = inhibition [18] 1.16% and 9.55% | activation [19] 20.8% | activation [20] 5.58% and 0.402% | activity change, negative = inhibition [21] -0.833% and 13.4%

CCOP(=S)(Cl)OCC
inactive: activity change, negative = cytotoxicity [1] -4.1% | activity change [3] -1.86% | activation [4] 0.958% | activation [5] -0.933% | activation [6] 1.49% | activation [7] -2.38% | activity change, negative = cytotoxicity [8] -0.788% | activity change, negative = cytotoxicity [9] 0.646% | activity change, negative = cytotoxicity [10] 0% | activation [11] -6.91% | activity, negative = inhibition [12] 15.5% | activation [13] 0.591% | activity, negative = inhibition [14] 2.51% | activation [15] -0.104% | activation [16] 2.64% | activity change, negative = inhibition [17] 0.126% | activity change, negative = inhibition [18] -8.91% | activation [20] -0.0389% | activity change, negative = inhibition [21] 10.2%
